Measured values published in paper PMC4061505 (Anesthesiology, 2014).

Tested on: mTOR and related proteins
Test: Western blot of phosphorylated mTOR and related proteins in rat brain
Conditions: 40 mg·kg^−1 intraperitoneal
[1] = did not reach statistical significance
[2] = maximum at the 30- and 60-min time-points, p<0.05

## CNC1(c2ccccc2Cl)CCCCC1=O (racemic) [(R,S)-ketamine]
[1]
  Increase in average expression of p4E-BP1: ~ 1.5 fold
  Increase in average expression of pAkt: ~ 1.3 fold
  Increase in average expression of pERK1/2: ~ 2 fold
[2]
  Increase in pmTOR: ~ 2.5 fold
  Increase in pp70S6K: ~ 2.5 fold
Rat pre-frontal cortex, 60-min post-administration, p<0.05
  Increase in phosphorylation of mTOR and its downstream targets: > 2.5 fold
